According to BindingDB's records for doi:10.1016/j.bmcl.2014.09.001 (University of Pittsburgh, 2014):

Experiment: Inhibition of IL-6-induced STAT3 phosphorylation in human Cal33 cells assessed as nuclear translocation by Western blot analysis

IC50 [µM] | Compound
7.9 | CC1=CC(C)(C)N=C(Nc2nc(C)c3cc(C)ccc3n2)N1
24.7 | Cc1cc(=O)nc(Nc2nc(C)c3cc(C)c(C)cc3n2)[nH]1
3.4 | CCOc1ccc2nc(Nc3nc(=O)cc(-c4ccccc4)[nH]3)nc(C)c2c1
20.7 | CCOc1ccc2c(C)nc(NC3=NC(C)=CC(C)(C)N3)nc2c1 [DNDI1417388]
